Data published in patent USRE38103E1, “5-methanesulfonamido-1-indanones as an inhibitor of cyclooxygenase-2” (Merck Frosst Canada & Co., priority 1992, dated 2003).
Where two headings read alike, the source gives them in different places.

By UniProt entry, the sequences of proteins in these tests, tags left out. Residues count along the entry.
UniProt P35354, 18-604 limits assumed: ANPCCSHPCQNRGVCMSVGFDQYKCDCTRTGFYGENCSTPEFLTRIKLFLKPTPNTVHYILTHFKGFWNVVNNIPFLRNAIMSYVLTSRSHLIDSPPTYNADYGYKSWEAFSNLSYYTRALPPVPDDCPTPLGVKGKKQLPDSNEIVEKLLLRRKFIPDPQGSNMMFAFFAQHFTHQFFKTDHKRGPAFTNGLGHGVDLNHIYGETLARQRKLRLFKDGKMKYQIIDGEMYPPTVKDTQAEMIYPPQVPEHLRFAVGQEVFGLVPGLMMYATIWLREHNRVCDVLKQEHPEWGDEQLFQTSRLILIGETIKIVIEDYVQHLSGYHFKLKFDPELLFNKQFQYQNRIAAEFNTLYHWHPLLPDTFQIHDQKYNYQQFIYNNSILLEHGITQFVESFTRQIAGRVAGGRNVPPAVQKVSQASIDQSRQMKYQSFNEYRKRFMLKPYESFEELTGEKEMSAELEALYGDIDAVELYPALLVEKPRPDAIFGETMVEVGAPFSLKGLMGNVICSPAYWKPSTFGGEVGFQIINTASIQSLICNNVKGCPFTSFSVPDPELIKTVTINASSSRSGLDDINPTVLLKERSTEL
UniProt P23219, 24-599 limits assumed: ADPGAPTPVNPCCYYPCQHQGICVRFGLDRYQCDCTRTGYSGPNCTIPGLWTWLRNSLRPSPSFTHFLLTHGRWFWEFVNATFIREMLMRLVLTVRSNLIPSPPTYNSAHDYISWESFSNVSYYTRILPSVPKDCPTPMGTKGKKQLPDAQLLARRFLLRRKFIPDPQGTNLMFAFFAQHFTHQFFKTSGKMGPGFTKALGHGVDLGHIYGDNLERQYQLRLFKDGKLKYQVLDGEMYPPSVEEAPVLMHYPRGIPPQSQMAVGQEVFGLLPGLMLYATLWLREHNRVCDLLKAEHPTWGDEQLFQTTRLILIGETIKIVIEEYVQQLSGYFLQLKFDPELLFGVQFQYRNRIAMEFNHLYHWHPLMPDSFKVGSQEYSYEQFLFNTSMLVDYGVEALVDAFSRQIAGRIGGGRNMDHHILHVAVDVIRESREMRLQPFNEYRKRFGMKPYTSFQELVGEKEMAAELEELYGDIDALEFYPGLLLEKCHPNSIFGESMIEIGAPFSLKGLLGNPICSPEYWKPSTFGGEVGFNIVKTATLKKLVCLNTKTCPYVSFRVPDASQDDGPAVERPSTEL

Assays:
cyclooxygenase-2 = cyclooxygenase-2 (Homo sapiens, UniProt P35354); experiment: Inhibition of cyclooxygenase-2 activity (PGE2 synthesis in response to arachidonic acid, radioimmunoassay; whole cell and microsomal assays); assay type: cell-based; conditions: read-out: COX-2 IC50
cyclooxygenase-1 = cyclooxygenase-1 (Homo sapiens, UniProt P23219); experiment: Inhibition of cyclooxygenase-1 activity (PGE2 synthesis in response to arachidonic acid, radioimmunoassay; whole cell and microsomal assays); assay type: cell-based; conditions: read-out: COX-1 IC50; table of prepared examples
paw edema = experiment: Rat paw edema assay (carrageenan); assay type: in vivo; conditions: po

Row | IC50 (cyclooxygenase-2; table of prepared examples) [nM] | Compound | also measured
1 | 300 | COc1ccc(Sc2cc3c(cc2NS(C)(=O)=O)CCC3=O)cc1 | –
2 | 100 | CS(=O)(=O)Nc1cc2c(cc1Sc1c(F)cccc1F)C(=O)CC2 | –
3 | 8 | CS(=O)(=O)Nc1cc2c(cc1Sc1ccc(Br)cc1)C(=O)CC2 | IC50 (cyclooxygenase-1): > 10 µM; Rat Paw Edema ED50 (paw edema; table of prepared examples): 3.0 mpk
4 | 100 | CSc1ccc(Oc2cc3c(cc2NS(C)(=O)=O)CCC3=O)cc1 | –
5 | 60 | CS(=O)(=O)Nc1cc2c(cc1Sc1c(F)cc(Br)cc1F)C(=O)CC2 | IC50 (cyclooxygenase-1): > 100 µM
6 | 100 | CS(=O)(=O)Nc1cc2c(cc1Sc1ccccc1C(F)(F)F)C(=O)CC2 | –
7 | 10 | CS(=O)(=O)Nc1cc2c(cc1Sc1ccc(Br)cc1F)C(=O)CC2 | –
8 | 100 | CS(=O)(=O)Nc1cc2c(cc1Sc1ccccc1F)C(=O)CC2 | –
9 | 1000 | CCc1ccc(Sc2cc3c(cc2NS(C)(=O)=O)CCC3=O)cc1 | –
10 | 7 | CS(=O)(=O)Nc1cc2c(cc1Sc1ccc(Cl)cc1Cl)C(=O)CC2 | IC50 (cyclooxygenase-2; human osteosarcoma 143 cells, PGE2 synthesis): 7 nM; Rat Paw EDEMA ED30 (paw edema; 1 hr before carrageenan, paw volume 3 hr later): 0.1 mpk
